Reference: ChEMBL document CHEMBL4837260, “Structure-Guided Design of a Small-Molecule Activator of Sirtuin-3 that Modulates Autophagy in Triple Negative Breast Cancer” (J Med Chem, 2021)

By UniProt entry, the sequences of proteins in these tests, tags left out. Where a name states a change or a piece, a line headed by the entry shows the natural chain unless it says otherwise.
UniProt Q9NXA8: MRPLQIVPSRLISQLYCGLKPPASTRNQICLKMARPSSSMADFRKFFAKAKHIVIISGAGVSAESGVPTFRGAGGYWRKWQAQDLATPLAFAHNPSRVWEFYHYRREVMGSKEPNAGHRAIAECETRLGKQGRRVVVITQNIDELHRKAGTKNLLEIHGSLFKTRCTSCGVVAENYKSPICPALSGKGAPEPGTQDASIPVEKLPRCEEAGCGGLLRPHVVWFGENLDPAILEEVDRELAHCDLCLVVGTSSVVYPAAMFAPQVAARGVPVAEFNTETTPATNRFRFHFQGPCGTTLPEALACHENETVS

What was measured:
[1] = biological target: T1, NAD-dependent protein deacetylase sirtuin-1 (Homo sapiens) (UniProt Q96EB6); experiment: Binding affinity to human SIRT1 human MDA-MB-231 cells assessed as increase in thermal stability heated for 3 mins up to 1 degC at 10 uM by cellular thermal shift assay; type: tissue-based
T1 sequence (whole entry): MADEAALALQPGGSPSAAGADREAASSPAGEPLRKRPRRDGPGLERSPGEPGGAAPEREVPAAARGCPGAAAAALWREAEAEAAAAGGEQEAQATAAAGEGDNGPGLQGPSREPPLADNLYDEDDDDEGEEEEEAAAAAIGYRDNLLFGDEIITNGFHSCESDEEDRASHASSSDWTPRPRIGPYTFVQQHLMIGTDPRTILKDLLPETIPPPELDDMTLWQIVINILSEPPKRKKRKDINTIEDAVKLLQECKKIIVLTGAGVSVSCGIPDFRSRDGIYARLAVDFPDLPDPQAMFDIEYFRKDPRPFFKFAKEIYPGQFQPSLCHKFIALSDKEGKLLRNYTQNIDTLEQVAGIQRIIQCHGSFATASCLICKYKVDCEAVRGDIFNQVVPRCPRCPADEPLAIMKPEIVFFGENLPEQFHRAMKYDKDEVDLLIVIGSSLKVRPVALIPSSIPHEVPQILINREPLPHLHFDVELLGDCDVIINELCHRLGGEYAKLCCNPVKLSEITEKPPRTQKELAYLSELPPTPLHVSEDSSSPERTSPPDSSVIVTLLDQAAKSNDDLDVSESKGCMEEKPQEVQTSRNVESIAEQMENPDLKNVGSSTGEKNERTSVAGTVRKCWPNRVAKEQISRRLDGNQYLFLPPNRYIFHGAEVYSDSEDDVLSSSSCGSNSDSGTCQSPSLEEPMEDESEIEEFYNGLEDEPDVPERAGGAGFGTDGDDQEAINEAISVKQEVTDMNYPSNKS

[2] = biological target: NAD-dependent protein deacylase sirtuin-5, mitochondrial (Homo sapiens) (UniProt Q9NXA8); experiment: Activation of SIRT5 in human MDA-MB-231 cells assessed as decrease in succin-ylation of mitochondrial proteins up to 10 uM incubated for 48 hrs by Western blot analysis; type: cell-based; conditions: dose microM <=10, time 48.0 hrs
[3] = biological target: T2, NAD-dependent protein deacetylase sirtuin-2 (Homo sapiens) (UniProt Q8IXJ6); experiment: Binding affinity to human SIRT2 human MDA-MB-231 cells assessed as increase in thermal stability heated for 3 mins up to 1 degC at 10 uM by cellular thermal shift assay; type: tissue-based
T2 sequence (whole entry): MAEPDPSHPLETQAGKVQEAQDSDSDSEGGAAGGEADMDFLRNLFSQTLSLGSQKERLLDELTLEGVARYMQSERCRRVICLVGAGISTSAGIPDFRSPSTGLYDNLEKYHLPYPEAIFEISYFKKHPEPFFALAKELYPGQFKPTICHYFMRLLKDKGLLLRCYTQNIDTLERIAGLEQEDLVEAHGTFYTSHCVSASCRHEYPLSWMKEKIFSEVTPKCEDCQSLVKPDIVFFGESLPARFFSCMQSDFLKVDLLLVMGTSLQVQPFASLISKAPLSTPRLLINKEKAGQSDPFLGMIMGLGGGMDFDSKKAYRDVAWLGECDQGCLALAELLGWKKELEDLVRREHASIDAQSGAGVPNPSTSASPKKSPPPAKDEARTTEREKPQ

[4] = biological target: T2, NAD-dependent protein deacetylase sirtuin-2 (Homo sapiens); experiment: Activation of recombinant human SIRT2 assessed as deacetylation activity using Gln-Pro-Lys-Lys(Ac) peptide substrate at 0 to 100 uM by fluorescent assay; conditions: dose 0-100 µM
[5] = biological target: NAD-dependent protein deacylase sirtuin-5, mitochondrial (Homo sapiens) (UniProt Q9NXA8); experiment: Binding affinity to human SIRT5 human MDA-MB-231 cells assessed as increase in thermal stability heated for 3 mins up to 1 degC at 10 uM by cellular thermal shift assay; type: tissue-based
[6] = biological target: NAD-dependent protein deacylase sirtuin-5, mitochondrial (Homo sapiens) (UniProt Q9NXA8); experiment: Activation of recombinant human SIRT5 assessed as deacetylation activity using FLUOR DE LYS-succinyl green substrate at 0 to 100 uM by fluorescent assay; conditions: dose 0-100 µM
[7] = biological target: T1, NAD-dependent protein deacetylase sirtuin-1 (Homo sapiens); experiment: Activation of recombinant human SIRT1 assessed as deacetylation activity using Arg-His-Lys-Lys(Ac) peptide substrate at 0 to 100 uM by fluorescent assay; conditions: dose 0-100 µM

Measured: Activity

CCCCc1oc2ccccc2c1C(=O)c1cc(I)c(OCCCN2CCCC2)c(I)c1
inactive: all assays above

Calls of active or inactive are those of the source.
